Test results: patent publication US11732048B2, “Anti-axl antagonistic antibodies” (BERGEN TEKNOLOGIOVERFØRING AS, priority 2016, dated 2023)

Tested on: A549 tumours
Test: A549 human NSCLC xenograft in mice (Examples 14, 16, 17, 18)
Assay type: in vivo, mouse
Conditions: NUDE mice, A549, i.p. twice weekly for 3 weeks
Experimental: To evaluate the anti-tumour activity of anti-Axl chimeric antibodies in vivo, we used a mouse xenograft model of human non-small cell lung cancer (NSCLC). The human NSCLC A549 cells (ATCC #CCL-185) A549 cells were propagated in vitro as a monolayer culture in DMEM medium supplemented with 10% FBS, 2 mM L-Glutamine, 100 U/ml penicillin and 100 μg/ml streptomycin, 0.01M HEPES buffer, 0.45% D-(+)-glucose, 1 mM sodium pyruvate. Nude mice were implanted subcutaneously (s.c.) into the flank with 5×10^6 A549 cells resuspended in serum-free medium/Matrigel (1:1). When the tumour size reached 100 mm^3 (Day 0 in FIG. 14), the animals were randomized and treated with either vehicle (sterile PBS) or anti-Axl chimeric antibody 10G5 at 20 mg/kg, by intraperitoneal (i.p.) injections twice weekly for 4 weeks.
To compare the anti-tumor effects of two variants of the chimeric antibody c10G5—wt and defucosylated—we used a mouse xenograft model of human non-small cell lung cancer (NSCLC). The human NSCLC A549 cells (ATCC #CCL-185) A549 cells were propagated in vitro as a monolayer culture in DMEM medium supplemented with 10% FBS, 2 mM L-Glutamine, 100 U/ml penicillin and 100 μg/ml streptomycin, 0.01M HEPES buffer, 0.45% D-(+)-glucose, 1 mM sodium pyruvate. SCID mice were implanted subcutaneously (s.c.) into the flank with 5×10^6 A549 cells resuspended in serum-free medium/Matrigel (1:1). […]

## Erbitux: Anti-EGFR therapeutic antibody cetuximab [reference compound]
  Significance of single-agent effect versus isotype control (Synagis): statistically not significant
